Reference: PubChem BioAssay AID504411 (The Scripps Research Institute Molecular Screening Center, 2011)
The list shows a part of the results, in another mix than the full data. Activity calls are given as the source filed them. No stated cut-off is given here; in the data, active means inhibition above about 34%; inactive means the rest.

Sequences of proteins named here, by UniProt entry; tags and fusion partners are left off. A change or cut given only in a name is not applied to a line headed by its entry.
UniProt Q8NCG7: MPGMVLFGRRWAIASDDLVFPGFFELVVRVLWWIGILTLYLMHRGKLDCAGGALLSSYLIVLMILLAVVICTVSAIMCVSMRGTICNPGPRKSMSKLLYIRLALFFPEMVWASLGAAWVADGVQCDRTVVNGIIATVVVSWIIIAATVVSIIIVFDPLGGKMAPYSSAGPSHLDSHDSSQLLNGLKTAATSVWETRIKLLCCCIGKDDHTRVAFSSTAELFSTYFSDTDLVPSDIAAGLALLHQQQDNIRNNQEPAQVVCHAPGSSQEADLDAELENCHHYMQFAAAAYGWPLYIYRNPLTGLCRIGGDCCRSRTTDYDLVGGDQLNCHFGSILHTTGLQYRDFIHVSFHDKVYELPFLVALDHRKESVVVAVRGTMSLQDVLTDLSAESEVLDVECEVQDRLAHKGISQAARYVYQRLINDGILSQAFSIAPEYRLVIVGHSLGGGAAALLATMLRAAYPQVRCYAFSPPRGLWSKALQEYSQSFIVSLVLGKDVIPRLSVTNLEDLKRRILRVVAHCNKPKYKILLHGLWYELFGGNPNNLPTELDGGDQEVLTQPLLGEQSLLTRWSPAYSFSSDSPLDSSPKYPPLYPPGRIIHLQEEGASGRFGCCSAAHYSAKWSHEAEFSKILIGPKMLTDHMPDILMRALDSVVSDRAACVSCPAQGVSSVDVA

Target: Diacylglycerol lipase-beta (Homo sapiens) (UniProt Q8NCG7)
Assay: inhibition of human DAGLB hydrolase activity – biochemical, fluorescence, HTS, primary screen (AID 504411);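 further: 0% = enzyme with vehicle and 100% = wells lacking enzyme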
Conditions: HEK293T DAGLB membrane lysate, EnzChek fluorogenic substrate; at 5.17 µM; stronger effect = higher value

Structure (SMILES)	inhibition
O=P1(N(CCCl)CCCl)NCCC(C(F)(F)F)O1 (stereo not given)	inactive: -0.95%
CC(C)(C)C(=O)NC(Sc1ncccn1)C(Cl)(Cl)Cl (stereo not given)	inactive: 3.54%
Nc1cccc2c([As](=O)(O)O)cccc12	inactive: -0.74%
Cc1ccc(NCCc2c([N+](=O)[O-])cc([N+](=O)[O-])cc2[N+](=O)[O-])cc1	inactive: 16.2%
CCCOP(=S)(Nc1nc(N)cc(=O)[nH]1)OCCC	inactive: -1.08%
COc1cc(C2NCCC3(OCCO3)C2(C)C)cc(OC)c1OC (stereo not given)	inactive: 0.77%
CCOP(=O)(Nc1cccc2ccccc12)OCC	inactive: -0.21%
O=C(OC1CN2CCC1CC2)c1ccc(Cl)cc1 (stereo not given)	inactive: 0.23%
COc1cc(C(=O)NCC2(N3CCOCC3)CCCCC2)cc(Cl)c1OC(C)C	inactive: -6.03%
O=[As](O)(O)c1cccnc1	inactive: 0.82%
CS(=O)(=O)c1ccc(Cl)c(NC(=O)COC(=O)C(O)(c2ccccc2)c2ccccc2)c1	inactive: -3.5%
O=[As](O)(c1cccc(O)c1)c1cccc(O)c1	inactive: -1.22%
Cc1cccc(OCC(=O)OC2CN3CCC2CC3)c1 (stereo not given)	inactive: 0.04%
NC(=O)Nc1ccc([As](=O)(O)O)cc1	inactive: 0.17%
N#CCCN(C(=O)COC(=O)C(O)(c1ccccc1)c1ccccc1)c1ccc(F)cc1	inactive: 0.83%
CN(C(=O)Cc1ccccc1)[C@@H]1CC[C@]2(CCCO2)C[C@H]1N1CCCC1	inactive: 3.14%
CCOP1(=S)c2c(C)nn(CCC#N)c2N=C(c2ccc(F)cc2)N1C (stereo not given)	inactive: -0.95%
CN(C)C(=O)c1cc([N+](=O)[O-])cc2c1-c1c(cc([N+](=O)[O-])cc1[N+](=O)[O-])C2=O	inactive: 2.39%
O=[N+]([O-])c1ccc2c(c1)nnn2O	inactive: 2.31%
CN(C(=O)Cc1ccc(Cl)c(Cl)c1)[C@H]1CC[C@@]2(CCCO2)C[C@@H]1N1CCCC1	inactive: 1.38%
CCOP1(=S)c2c(C)nn(CCC#N)c2N=C(c2ccccc2F)N1C (stereo not given)	inactive: 0.6%
O=P(Nc1nccs1)(c1ccccc1)c1nc2ccccc2s1 (stereo not given)	inactive: -1.84%

Structure (SMILES)	inhibition
O=P(Nc1nccs1)(Oc1ccccc1)Oc1ccccc1	inactive: -2.12%
CS(=O)(=O)c1cc([N+](=O)[O-])c2no[n+]([O-])c2c1	inactive: 2.4%
O=C(O)COc1ccc([As](=O)(O)O)cc1[N+](=O)[O-]	inactive: -0.14%
Nc1ccccc1[As](=O)(O)c1ccccc1	inactive: -0.56%
ClCCSc1nnc(-c2cccnc2)o1	inactive: 0.9%
CC(C)c1ccc(OP(=O)(Nc2ccccn2)Oc2ccccc2F)cc1 (stereo not given)	inactive: -2.23%
COC(=O)C1(C)COP(=O)(N2CCCCCC2)OC1 (stereo not given)	inactive: -0.11%
O=C(OC1CN2CCC1CC2)c1cccc2[nH]cnc12 (stereo not given)	inactive: -1.84%
CCN(CC)C(=S)SC(NC=O)C(Cl)(Cl)Cl (stereo not given)	inactive: 2.16%
O=[N+]([O-])c1cc([N+](=O)[O-])c(-c2ccn[nH]2)s1	inactive: 0.7%
O=[As](O)(c1ccc(O)cc1)c1ccccc1O	inactive: 4.1%
C[As](=O)(O)c1cccc(C(=O)O)c1	inactive: -2.58%
COc1cc(C(=O)NCC2(N3CCOCC3)CCCCC2)ccc1OCC(C)C	inactive: -2.11%
O=[N+]([O-])c1ccc(-c2cc([N+](=O)[O-])c(O)c([N+](=O)[O-])c2)cc1	active: 34.8%
Cc1ccc(OP(=O)(Nc2ccc([N+](=O)[O-])cn2)Oc2ccc(C)cc2)cc1	inactive: -1.81%
Cc1ccc2nc3c(c(C)c2c1)CC(C(Cl)Cl)S3 (stereo not given)	inactive: -12.8%
O=[N+]([O-])c1cc(Oc2ccc([N+](=O)[O-])cc2C(F)(F)F)cc([N+](=O)[O-])c1	inactive: 1.59%
COc1ccc(N/C(=N/P(=O)(N2CCOCC2)N2CCOCC2)N2CCOCC2)cc1	inactive: -1.21%
Cc1c2c(nc3ccccc13)SC(C(Cl)Cl)C2 (stereo not given)	inactive: -5.47%
O=C(OC1CN2CCC1CC2)C12CC3CC(CC(C3)C1)C2 (stereo not given)	inactive: 0.38%
Cc1cc(=O)[nH]c(N[N+](=O)[O-])n1	inactive: -2.85%
O=P1(N(CCCl)CCCl)OCCCN1CCCl (stereo not given)	inactive: 0.57%

Structure (SMILES)	inhibition
O=P1(N(CCCl)CCCl)Nc2ccccc2N1	inactive: -2.59%
COc1ccc2nc(NP(=O)(c3ccccc3)c3ccccc3)sc2c1	inactive: -2.17%
COc1cc(I)ccc1[As](=O)(O)O	inactive: 2.32%
O=C(OC1CN2CCC1CC2)c1cccc([N+](=O)[O-])c1 (stereo not given)	inactive: -0.19%
CSc1ccc(Nc2c([N+](=O)[O-])cc([N+](=O)[O-])cc2[N+](=O)[O-])cc1	inactive: 26.3%
CCOC(=O)c1ccc(NC(=O)C(C)(CCl)SC)cc1 (stereo not given)	inactive: -2.36%
CCC(C)N(CC(C)C)C(=S)SC(NC(C)=O)C(Cl)(Cl)Cl (stereo not given)	inactive: 0.12%
COP1(=S)c2c(C)nn(CCC#N)c2N=C(c2ccc(F)cc2)N1C (stereo not given)	inactive: -1.43%
O=C(O)C(=O)c1ccc(N(CCCl)CCCl)cc1	inactive: -1.78%
O=C(COc1ccccc1)OC1CN2CCC1CC2 (stereo not given)	inactive: -1.86%
O=C(Nc1ccncc1[N+](=O)[O-])c1ccc([N+](=O)[O-])cc1[N+](=O)[O-]	inactive: -0.59%
CCOC(=O)Nc1cccc([As](=O)(O)O)c1	inactive: -6.74%
Cc1cc(SC(NC=O)C(Cl)(Cl)Cl)ncn1 (stereo not given)	inactive: -6.03%
O=P(Nc1ccccn1)(c1cccc2ccccc12)c1cccc2ccccc12	inactive: 0.47%
O=[N+]([O-])c1ccc(Nc2ccc(Oc3ccc([N+](=O)[O-])cc3[N+](=O)[O-])cc2)c([N+](=O)[O-])c1	inactive: -3.86%
O=C(O)C(O)c1ccc(N(CCCl)CCCl)cc1 (stereo not given)	inactive: -3.64%
CCOC(=O)Nc1ccc([As](=O)(O)O)c(O)c1	inactive: -1.76%
CC1CCNP(=O)(N(CCCl)CCCl)O1 (stereo not given)	inactive: -4.27%
COP(=O)(OC)N1CC1c1ccccc1 (stereo not given)	inactive: 0.29%
CCCCOc1ccc(C(=O)NCC2(N3CCCCC3)CCCCC2)cc1OC	inactive: 2.16%
Cc1cc(SC(NC(=O)c2ccccc2)C(Cl)(Cl)Cl)nc(C(C)C)n1 (stereo not given)	inactive: -3.22%
